Assay results taken from article PMC9604325, “Internalized Amyloid-β (1-42) Peptide Inhibits the Store-Operated Calcium Entry in HT-22 Cells” (International Journal of Molecular Sciences, 2022).

Columns and labels:
Calmodulin = Calmodulin (UniProt P0DP23); details: cited from earlier work
[1] = target: Calmodulin (CaM), endogenous in HT-22 cells (mouse (endogenous in HT-22)) (UniProt P0DP26); assay: FRET or BRET; FRET imaging of fixed and permeabilized HT-22 cells stained with rabbit anti-CaM and anti-rabbit IgG-Alexa488 (donor), then 50 or 100 nM Aβ(1-42)*555 (acceptor) for 15 min at RT in PBS; ratio of red/green fluorescence per pixel

fold increase in the red/green fluorescence intensity ratio (FRET) at 50 nM Aβ(1-42)*555 [1] [fold] | fold increase in the red/green fluorescence intensity ratio (FRET) at 100 nM Aβ(1-42)*555 [1] [fold] | Substance | Kd (Calmodulin) [nM]
– | – | Amyloid-β (from UniProt P05067) | 1
3.4 | 6.9 | Human Aβ(1-42)-HiLyte™-Fluor555 (from UniProt P05067 672-713) (peptide; HiLyte Fluor555 label (position not stated); other documents disagree on this pair) | –
